From article PMC11272584 (Nature Metabolism, 2024)

Key:
GIPR H166Y = target: T1, GIPR H166Y (Homo sapiens, UniProt P48546, H166Y); test: cAMP accumulation; format: cell-based; set-up: host or cells: HEK293
T1 sequence (P48546 22-466 H166Y): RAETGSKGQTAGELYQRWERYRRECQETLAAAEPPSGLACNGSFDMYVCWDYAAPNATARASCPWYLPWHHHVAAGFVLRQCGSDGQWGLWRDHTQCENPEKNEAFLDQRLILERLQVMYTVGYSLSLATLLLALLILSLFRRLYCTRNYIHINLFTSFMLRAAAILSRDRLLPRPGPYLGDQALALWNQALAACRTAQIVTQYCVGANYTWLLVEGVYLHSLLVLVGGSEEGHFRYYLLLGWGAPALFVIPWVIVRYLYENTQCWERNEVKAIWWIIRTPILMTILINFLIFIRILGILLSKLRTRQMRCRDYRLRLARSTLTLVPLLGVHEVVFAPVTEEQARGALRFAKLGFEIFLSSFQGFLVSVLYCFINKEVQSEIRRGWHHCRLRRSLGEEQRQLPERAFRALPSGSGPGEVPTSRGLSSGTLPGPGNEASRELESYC

GIPR E291K = target: T2, GIPR E291K (Homo sapiens, UniProt P48546, E291K); test: cAMP accumulation; format: cell-based; set-up: host or cells: HEK293
T2 sequence (P48546 22-466 E291K): T1 sequence (P48546 22-466 H166Y) with Y145H, E270K

GIPR R190Q = target: T3, GIPR R190Q (Homo sapiens, UniProt P48546, R190Q); test: cAMP accumulation; format: cell-based; set-up: host or cells: HEK293
T3 sequence (P48546 22-466 R190Q): T1 sequence (P48546 22-466 H166Y) with Y145H, R169Q

WT GIPR = WT GIPR (Homo sapiens, UniProt P48546); conditions: HEK293A, 1 µM GIP minus vehicle, n = 8, P = 0.00019
GIPR R164W = target: T4, GIPR R164W (Homo sapiens, UniProt P48546, R164W); test: cAMP accumulation; format: cell-based
T4 construct: host or cells: HEK293

GIPR R12Q = target: T5, GIPR R12Q (Homo sapiens, UniProt P48546); test: cAMP accumulation; format: cell-based; set-up: host or cells: HEK293
T5 sequence (P48546 22-466): T1 sequence (P48546 22-466 H166Y) with Y145H

[1] = HEK293, GIP(1–42) 1 pM–100 nM, 30 min 37 °C, mean of n = 4
[2] = HEK293, Hill slope 1.0, mean of n = 4

## glucose-dependent insulinotropic polypeptide [GIP]
GIPR H166Y; HEK293, GIP(1–42) 1 pM–100 nM, 30 min 37 °C, mean of n = 3
  cAMP (Emax): 129 % of WT GIPR activity
GIPR H166Y; HEK293, Hill slope 1.0, mean of n = 3
  logEC50 (cAMP): -10.6
GIPR E291K; [1]
  cAMP (Emax): 230 % of WT GIPR activity
GIPR E291K; [2]
  logEC50 (cAMP): -9.5
GIPR R190Q; HEK293, GIP(1–42) 1 pM–100 nM, 30 min 37 °C, mean of n = 7
  cAMP (Emax): 72 % of WT GIPR activity
GIPR R190Q; HEK293, Hill slope 1.0, mean of n = 7
  logEC50 (cAMP): -8.1
WT GIPR
  Mean of ΔBRET: 0.1015
GIPR R164W; [1]
  cAMP (Emax): 9 % of WT GIPR activity
GIPR R164W; [2]
  logEC50 (cAMP): -8.4
GIPR R12Q; HEK293, GIP(1–42) 1 pM–100 nM, 30 min 37 °C, mean of n = 6
  cAMP (Emax): 86 % of WT GIPR activity
GIPR R12Q; HEK293, Hill slope 1.0, mean of n = 6
  logEC50 (cAMP): -11.4

Where a chain is given by its changes, count along the chain named.
